Measured values taken from patent publication US20230382865A1, “HISTONE DEMETHYLASE 5 INHIBITORS AND USES THEREOF” (DANA-FARBER CANCER INSTITUTE, INC., priority 2018, published 2023).

The chains behind the UniProt entries cited, without tags or fusion partners.
UniProt Q9UGL1, whole entry: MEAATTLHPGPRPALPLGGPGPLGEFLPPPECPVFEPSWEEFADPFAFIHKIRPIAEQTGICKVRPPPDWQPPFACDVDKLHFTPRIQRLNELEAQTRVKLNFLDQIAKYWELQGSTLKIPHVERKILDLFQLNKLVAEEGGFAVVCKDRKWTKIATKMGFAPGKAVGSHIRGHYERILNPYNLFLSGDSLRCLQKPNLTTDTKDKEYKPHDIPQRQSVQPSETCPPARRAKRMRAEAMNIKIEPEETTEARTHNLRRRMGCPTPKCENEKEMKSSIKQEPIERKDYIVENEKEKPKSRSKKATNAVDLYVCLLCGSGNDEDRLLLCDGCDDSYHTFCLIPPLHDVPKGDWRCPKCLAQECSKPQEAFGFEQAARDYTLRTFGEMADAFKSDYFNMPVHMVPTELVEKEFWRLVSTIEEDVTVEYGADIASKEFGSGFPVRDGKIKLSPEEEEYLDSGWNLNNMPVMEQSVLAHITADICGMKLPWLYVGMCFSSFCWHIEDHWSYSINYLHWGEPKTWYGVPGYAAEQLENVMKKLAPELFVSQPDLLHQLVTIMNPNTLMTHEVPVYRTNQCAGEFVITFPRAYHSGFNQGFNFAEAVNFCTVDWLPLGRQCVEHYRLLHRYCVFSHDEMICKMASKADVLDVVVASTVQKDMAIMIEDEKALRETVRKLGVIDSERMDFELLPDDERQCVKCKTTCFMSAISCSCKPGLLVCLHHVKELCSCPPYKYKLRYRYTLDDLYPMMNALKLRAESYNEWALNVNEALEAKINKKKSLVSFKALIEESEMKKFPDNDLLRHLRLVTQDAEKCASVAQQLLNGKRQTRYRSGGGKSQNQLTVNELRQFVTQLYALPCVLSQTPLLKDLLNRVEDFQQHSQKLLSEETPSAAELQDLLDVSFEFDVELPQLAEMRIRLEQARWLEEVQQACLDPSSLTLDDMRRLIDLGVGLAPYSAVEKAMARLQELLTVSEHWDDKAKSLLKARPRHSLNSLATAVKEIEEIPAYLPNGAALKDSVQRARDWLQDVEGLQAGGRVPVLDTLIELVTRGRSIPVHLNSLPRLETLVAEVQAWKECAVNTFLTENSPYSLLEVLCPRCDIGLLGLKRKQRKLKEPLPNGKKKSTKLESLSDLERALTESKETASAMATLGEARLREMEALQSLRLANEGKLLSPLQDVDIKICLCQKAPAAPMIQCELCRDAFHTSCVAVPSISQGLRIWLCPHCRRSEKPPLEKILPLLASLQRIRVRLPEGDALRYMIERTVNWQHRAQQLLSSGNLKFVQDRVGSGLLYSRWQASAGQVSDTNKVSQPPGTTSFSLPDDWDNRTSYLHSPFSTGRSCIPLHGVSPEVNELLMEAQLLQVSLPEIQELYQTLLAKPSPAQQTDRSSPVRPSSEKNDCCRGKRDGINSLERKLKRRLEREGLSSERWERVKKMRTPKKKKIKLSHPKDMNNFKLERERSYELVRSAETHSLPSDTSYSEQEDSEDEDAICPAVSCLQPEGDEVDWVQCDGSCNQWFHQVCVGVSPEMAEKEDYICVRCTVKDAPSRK

These compounds were tested against KDM5B (Homo sapiens, UniProt Q9UGL1) (assay: KDM5B alphascreen activity assay). Settings: Table 3, against KDM5B (FIG. 9A-9B).
Type: biochemical

**Q.** CCOC(=O)c1ccnc(CNCC(=O)N(CCN(C)C)C2CC2)c1 was tested. Which IC50 did it give?
**A.** Its IC50 is 1530 nM.

**Q.** CCN(CCN(C)C)C(=O)CNCc1cc(C(=O)Oc2c(OC)cccc2OC)ccn1 was tested. Which IC50 did it give?
**A.** Its IC50 is 390 nM.

**Q.** Which IC50 does the source give for CCN(CCN(C)C)C(=O)CNCc1cc(C(=O)Nc2c(OC)cccc2OC)ccn1 here?
**A.** Its IC50 is 460 nM.

**Q.** For CCN(CCN(C)C)C(=O)CNCc1cc(C(=O)OCc2oc(=O)oc2C)ccn1, which IC50 is on record?
**A.** The IC50 was 290 nM.

**Q.** How did the IC50 turn out when CCOC(=O)c1ccnc(CNCC(=O)N(C)CCN(C)C)c1 was run?
**A.** Its IC50 is 6750 nM.

**Q.** For CCN(CCN(C)C)C(=O)CNCc1cc(C(=O)Oc2ccccc2OC(C)C)ccn1, which IC50 is on record?
**A.** Its IC50 is 520 nM.

**Q.** With CC(C)Oc1cccc(OC(C)C)c1OC(=O)c1ccnc(CNCC(=O)N(CCN(C)C)C2CC2)c1 as the compound, how does the IC50 read?
**A.** The IC50 was 890 nM.

**Q.** For CC(C)Oc1cccc(OC(C)C)c1OC(=O)c1ccnc(CNCC(=O)N(C)CCN(C)C)c1, which IC50 is on record?
**A.** The IC50 was 1040 nM.

**Q.** For CCN(CCN(C)C)C(=O)CNCc1cc(C(=O)Oc2ccccc2OC)ccn1, which IC50 is on record?
**A.** The IC50 was 940 nM.
